This passage reports IC50 results from article PMC4430358 (Bioorganic & medicinal chemistry letters, 2015).

By UniProt entry, the sequences of proteins in these tests, tags left out.
UniProt P25025, whole entry: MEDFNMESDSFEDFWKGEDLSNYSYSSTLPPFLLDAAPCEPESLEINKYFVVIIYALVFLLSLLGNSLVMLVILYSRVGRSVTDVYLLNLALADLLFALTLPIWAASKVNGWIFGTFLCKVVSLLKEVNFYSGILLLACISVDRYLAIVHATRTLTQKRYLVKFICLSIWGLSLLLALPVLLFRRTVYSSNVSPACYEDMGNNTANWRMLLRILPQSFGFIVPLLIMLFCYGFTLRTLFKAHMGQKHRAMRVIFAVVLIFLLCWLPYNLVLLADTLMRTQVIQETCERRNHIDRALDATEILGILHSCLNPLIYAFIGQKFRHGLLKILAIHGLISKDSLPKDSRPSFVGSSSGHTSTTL

pIC50: −log10 of the molar value.

For the experiment, the target named is CXCR2 (Homo sapiens, UniProt P25025). The experiment in a line: PathHunter β-arrestin assay. The conditions noted are these: read-out: CXCR2 PathHunter cell line IC50 β-arrestin; IL8 used as agonist; quadruplicate, mean ± SE. The format is cell-based.

A word on the pIC50: it is −log10 of the IC50, conventionally taken in molar units. In the case of `O=C(Nc1ccc([N+](=O)[O-])cc1O)Nc1ccccc1Br` [SB225002, reference compound], the pIC50 was 7.05.
